According to US6916822B2, “Phenoxyalkylamine derivatives useful as opioid δ receptor agonists” (Meiji Seika Kaisha, Ltd., priority 2000, dated 2005):

molecular target: T1, opioid δ receptor (Rattus norvegicus, UniProt P33533); test: Binding affinity for opioid δ receptor ([3H]-Naltrindole binding experiment); settings: membrane fraction from rat forebrain; [3H]-Naltrindole 1 nM; 25° C., 90 minutes; Ki calculated from IC50 by Cheng-Prusoff equation
T1 construct: A membrane fraction of opioid δ receptor was prepared from the rat forebrain; from tissue; host or cells: rat forebrain membrane fraction

Structure (SMILES) | Ki [nM]
CC(C)N(C(=O)c1ccc(Cc2ccccc2OCCN2CCC3(CC2)C(=O)NCN3c2ccccc2)cc1)C(C)C [Example 32, 8-[2-[2-(4-Diisopropylcarbamoylbenzyl)phenoxy]ethyl]-1-phenyl-1,3,8-triazaspiro[4,5]decan-4-one] | 517
CCN(CC)C(=O)c1ccc(Cc2ccccc2OCCN2CCC(C(C)=O)(c3ccccc3)CC2)cc1 [Example 49, 4-Acetyl-1-[2-[2-(4-diethylcarbamoylbenzyl)phenoxy]ethyl]-4-phenylpiperidine] | 943
CCN(CC)C(=O)c1ccc(Cc2ccccc2OCCN2CCC3(CC2)C(=O)N(C)CN3c2ccccc2)cc1 [Example 36, 8-[2-[2-(4-Diethylcarbamoylbenzyl)phenoxy]ethyl]-3-methyl-1-phenyl-1,3,8-triazaspiro[4,5]decan-4-one] | 240
O=C(c1ccc(Cc2ccccc2OCCN2CCC(n3c(=O)[nH]c4ccccc43)CC2)cc1)N1CCCC1 [Example 15, 4-(1,3-Dihydro-2H-benzimidazol-2-on-1-yl)-1-[2-[2-(4-pyrrolidinocarbonyl-benzyl)phenoxy]ethyl]piperidine] | 281
CCC(C)C(=O)c1ccc(Cc2ccccc2OCCN2CCC(n3c(CO)nc4ccccc43)CC2)cc1 (stereo not drawn) [Example 110, 4-(2-Hydroxymethyl-1H-benzimidazol-1-yl)-1-[2-[2-[4-(2-methylbutyryl)benzyl]phenoxy]ethyl]piperidine] | 88
CC(C)COC(=O)c1ccc(Cc2ccccc2OCCN2CCC(n3c(CO)nc4ccccc43)CC2)cc1 [Example 103, 1-[2-[2-(4-Isobutyloxycarbonylbenzyl)phenoxy]ethyl]-4-(2-hydroxymethyl-1H-benzimidazol-1-yl)piperidine] | 73
